Data taken from ChEMBL document CHEMBL1221364 (Bioorg Med Chem, 2010).

Chains of the proteins cited; added tags and fusions are not shown.
UniProt P21728, whole entry: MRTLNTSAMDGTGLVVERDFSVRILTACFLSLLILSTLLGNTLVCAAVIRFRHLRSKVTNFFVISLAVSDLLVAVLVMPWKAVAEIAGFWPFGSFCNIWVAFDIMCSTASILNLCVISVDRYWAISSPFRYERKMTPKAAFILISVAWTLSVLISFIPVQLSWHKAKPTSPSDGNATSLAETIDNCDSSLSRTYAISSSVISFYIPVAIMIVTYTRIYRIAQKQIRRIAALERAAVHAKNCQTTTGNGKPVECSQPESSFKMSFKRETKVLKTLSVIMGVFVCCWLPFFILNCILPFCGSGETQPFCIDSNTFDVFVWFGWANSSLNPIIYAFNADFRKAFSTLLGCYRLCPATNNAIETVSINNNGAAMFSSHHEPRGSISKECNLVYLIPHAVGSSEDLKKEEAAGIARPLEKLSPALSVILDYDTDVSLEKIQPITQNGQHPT

Target: D(1A) dopamine receptor (Homo sapiens, UniProt P21728)
Test: Agonist activity at human D1 receptor assessed as cAMP accumulation
Format: functional

`Oc1cc2c(cc1O)[C@H]1c3ccccc3CN[C@H]1CO2` [DOXANTHINE] gave an EC50 of 4.3 nM.
